Data reported in US20190209539A1, “THIOHYDANTOIN ANDROGEN RECEPTOR ANTAGONISTS FOR THE TREATMENT OF CANCER” (Janssen Pharmaceutica NV, priority 2016, published 2019).

Sequences of proteins named here, by UniProt entry; tags and fusion partners are left off.
UniProt P10275, whole entry: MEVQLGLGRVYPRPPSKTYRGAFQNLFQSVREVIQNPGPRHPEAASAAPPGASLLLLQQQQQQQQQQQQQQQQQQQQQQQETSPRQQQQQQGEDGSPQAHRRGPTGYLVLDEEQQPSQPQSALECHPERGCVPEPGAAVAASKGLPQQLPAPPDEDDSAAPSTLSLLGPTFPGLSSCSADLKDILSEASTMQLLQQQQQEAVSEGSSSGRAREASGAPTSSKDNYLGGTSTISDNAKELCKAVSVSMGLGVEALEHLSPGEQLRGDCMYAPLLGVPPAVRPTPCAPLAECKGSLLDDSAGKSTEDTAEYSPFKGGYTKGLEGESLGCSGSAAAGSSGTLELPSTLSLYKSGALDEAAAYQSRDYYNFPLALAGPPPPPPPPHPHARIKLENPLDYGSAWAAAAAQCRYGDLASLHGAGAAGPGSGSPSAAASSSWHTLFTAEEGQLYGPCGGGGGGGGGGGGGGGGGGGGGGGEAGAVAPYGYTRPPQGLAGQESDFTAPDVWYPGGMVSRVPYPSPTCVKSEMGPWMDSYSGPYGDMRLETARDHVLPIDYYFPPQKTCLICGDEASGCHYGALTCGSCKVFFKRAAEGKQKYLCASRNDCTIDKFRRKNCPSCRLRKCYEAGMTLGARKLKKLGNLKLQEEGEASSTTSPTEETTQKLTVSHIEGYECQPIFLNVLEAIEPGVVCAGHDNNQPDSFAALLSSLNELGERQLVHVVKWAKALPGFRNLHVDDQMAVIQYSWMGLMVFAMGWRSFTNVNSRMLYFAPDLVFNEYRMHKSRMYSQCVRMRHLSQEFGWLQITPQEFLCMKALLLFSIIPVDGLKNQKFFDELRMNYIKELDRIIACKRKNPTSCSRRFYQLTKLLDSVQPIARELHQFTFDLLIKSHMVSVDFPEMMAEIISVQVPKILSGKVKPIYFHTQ

Columns and labels:
[1] = biological target: T1, wild-type Androgen Receptor (AR-wt) (Homo sapiens, UniProt P10275); experiment: LNCaP-AR-wt AG: ARE luciferase reporter assay, agonist mode; format: cell-based
[2] = biological target: T1, wild-type Androgen Receptor (AR-wt); experiment: LNCaP-AR-wt ANT: ARE luciferase reporter assay, antagonist mode; format: cell-based; settings: 400 pM R-1881 challenge

## CN1CCC(Oc2ccc(N3C(=S)N(c4cnc(C#N)c(C(F)(F)F)c4)C(=O)C3(C)C)cc2)CC1
[1]; agonist mode
  LNCaP-AR-wt AG pEC50: <4.82
[1]; maximum % stimulation (agonist response), % of 1 μM R-1881 max
  LNCaP-AR-wt AG MAX % Stim: 0.3%
[2]
  LNCaP-AR-wt ANT pIC50: 6.06
